In US20080201790A1 (published 2008):

What was measured:
[1] = molecular target: T1, C4Raf (amino terminus of Raf-1, encoded by p-C4Raf, expressed in COS cells); assay: GST agarose pull-down from COS cell lysate, anti-Raf immunoblot
T1 construct: domain: amino terminus of Raf-1

[2] = molecular target: T2, MEKK1 (protein encoded by p-MEKK1, transiently expressed in COS cells) (mouse, UniProt P53349 822-1493, limits assumed); assay: GST agarose pull-down from COS cell lysate, anti-MEKK immunoblot
T2 construct: Full-length MEKK1 in COS cell lysate; also called holoMEKK1; MEK kinase 1
T2 sequence: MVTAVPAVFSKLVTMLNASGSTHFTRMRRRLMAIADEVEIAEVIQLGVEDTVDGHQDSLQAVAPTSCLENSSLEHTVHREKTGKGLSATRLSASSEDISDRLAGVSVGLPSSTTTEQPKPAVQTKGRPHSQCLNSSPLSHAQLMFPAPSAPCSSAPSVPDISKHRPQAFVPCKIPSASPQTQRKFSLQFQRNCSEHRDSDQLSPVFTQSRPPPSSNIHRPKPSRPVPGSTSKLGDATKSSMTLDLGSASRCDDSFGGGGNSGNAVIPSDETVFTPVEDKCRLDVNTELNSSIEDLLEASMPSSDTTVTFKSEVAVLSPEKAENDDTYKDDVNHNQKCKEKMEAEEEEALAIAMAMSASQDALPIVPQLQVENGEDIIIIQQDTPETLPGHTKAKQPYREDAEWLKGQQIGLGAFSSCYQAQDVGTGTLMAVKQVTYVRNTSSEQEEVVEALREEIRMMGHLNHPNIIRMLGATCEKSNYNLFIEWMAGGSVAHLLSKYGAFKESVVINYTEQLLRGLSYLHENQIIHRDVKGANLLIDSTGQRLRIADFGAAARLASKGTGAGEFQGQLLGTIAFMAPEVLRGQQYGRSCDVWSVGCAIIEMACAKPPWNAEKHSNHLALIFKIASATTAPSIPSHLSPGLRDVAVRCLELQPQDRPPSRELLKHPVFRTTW

binding result [1]: no binding | binding result [2]: no binding
B1: GST agarose (control) (other, UniProt P08515 1-218, looked up)
chain: MSPILGYWKIKGLVQPTRLLLEYLEEKYEEHLYERDEGDKWRNKKFELGLEFPNLPYYIDGDVKLTQSMAIIRYIADKHNMLGGCPKERAEISMLEGAVLDIRYGVSRIAYSKDFETLKVDFLSKLPEMLKMFEDRLCHKTYLNGDHVTHPDFMLYDALDVVLYMDPMCLDAFPKLVCFKKRIEAIPQIDKYLKSSKYIAWPLQGWQATFGGGDHPPK
notes: Negative control for the Ras pull-downs
